Results reported in publication PMC9378673 (Nature Communications, 2022).

By UniProt entry, the sequences of proteins in these tests, tags left out.
UniProt O75874, whole entry S280F: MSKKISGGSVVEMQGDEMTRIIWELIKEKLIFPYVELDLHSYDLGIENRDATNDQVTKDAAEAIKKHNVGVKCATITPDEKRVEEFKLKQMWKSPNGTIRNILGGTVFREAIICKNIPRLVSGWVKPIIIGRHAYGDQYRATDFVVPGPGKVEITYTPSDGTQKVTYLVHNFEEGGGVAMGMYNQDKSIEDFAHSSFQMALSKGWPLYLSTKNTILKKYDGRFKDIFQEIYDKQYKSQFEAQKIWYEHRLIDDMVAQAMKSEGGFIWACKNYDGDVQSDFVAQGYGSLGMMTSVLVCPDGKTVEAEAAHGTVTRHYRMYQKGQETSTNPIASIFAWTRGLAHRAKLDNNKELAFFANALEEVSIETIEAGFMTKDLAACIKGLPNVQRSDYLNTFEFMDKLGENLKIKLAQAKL
UniProt O75874, whole entry: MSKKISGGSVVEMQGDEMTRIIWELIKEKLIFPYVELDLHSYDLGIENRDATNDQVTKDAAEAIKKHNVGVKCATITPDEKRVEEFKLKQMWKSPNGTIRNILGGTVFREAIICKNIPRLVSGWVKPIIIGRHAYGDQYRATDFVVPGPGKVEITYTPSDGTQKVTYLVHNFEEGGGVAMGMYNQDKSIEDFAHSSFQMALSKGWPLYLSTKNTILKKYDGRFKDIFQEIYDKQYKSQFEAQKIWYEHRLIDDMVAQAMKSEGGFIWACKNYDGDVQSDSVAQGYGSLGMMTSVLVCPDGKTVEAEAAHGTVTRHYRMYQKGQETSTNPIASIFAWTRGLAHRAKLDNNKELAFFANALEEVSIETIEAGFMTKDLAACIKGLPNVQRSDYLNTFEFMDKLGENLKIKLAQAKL

What was measured:
[1] = biological target: T1, IDH1 S280F (Homo sapiens, UniProt O75874, S280F); test: Steady-state kinetics, spectrophotometric NADPH absorption assay; assay type: biochemical; conditions: oxidative decarboxylation of isocitrate; 1 nM enzyme; varied substrate = label
T1 construct: made in house; host or cells: E. coli BL21(DE3)plysS
Protocol: (§1) This assay was used to study steady-state kinetics and inhibition of reactions catalysed by IDH1 variants. The assay buffer was 100 mM Tris, 10 mM MgCl2, 0.2 mM dithiothreitol (DTT), 0.005%(v/v) Tween 20, and 0.1 mg mL^−1 bovine serum albumin (BSA) (pH 8.0). For inhibition assays, IDH1 variants were incubated with an inhibitor for 12 min before the reaction was initiated by substrate addition. The standard error was derived from curve fitting using GraphPad Prism v9. See figure legends for details on specific kinetic assays (Figs. 1–3; Supplementary Fig. 5; Supplementary Table 1). […]
(§2) spectrophotometric NADPH absorption assay. Conditions: 100 mM Tris, 10 mM MgCl2, 0.2 mM DTT, 0.005 %(v/v) Tween 20, and 0.1 mg/mL bovine serum albumin (BSA), pH 8.0. […] (a) Michaelis Menten […]
(§3) parameters for the oxidative decarboxylation of isocitrate. Errors: standard error of the mean (n = 3). (b) Michaelis Menten parameters for the reduction of 2-OG to 2-HG. Errors: standard error of the mean (n = 3).

[2] = biological target: T2, IDH1 wt (Homo sapiens, UniProt O75874); test: as above; assay type: biochemical; conditions: oxidative decarboxylation of isocitrate; 1 nM enzyme; varied substrate = label
T2 construct: made in house; host or cells: E. coli BL21(DE3)plysS
Protocol: as §1, §2, §3

## O=C(O)CC(C(=O)O)C(O)C(=O)O (racemic) [DL-Isocitrate, DL-isocitric acid trisodium salt]
[1]
  kcat IDH1 S280F: 33.4 ± 0.9 s⁻¹
[2]
  kcat IDH1 wt: 43 ± 1 s⁻¹

Counter-ions that a name gives are not always drawn.
